According to ChEMBL document CHEMBL4304838, “Building Bridges in a Series of Estrogen Receptor Degraders: An Application of Metathesis in Medicinal Chemistry” (ACS Med Chem Lett, 2019):

Assays:
in vitro = details: rat, hepatocytes
[1] = human, plasma

- hepatocyte CLint (in vitro): 11 µL/min/1e6 cells
- Fu [1]: 0.23%
Structure (SMILES): C[C@@H]1Cc2c([nH]c3ccccc23)[C@@H](c2c(F)cc(OCCN3CC(CF)C3)cc2F)N1CC(C)(C)F
